“And” between values parts separate entries of the source, which are not always exact repeats. Equal values may be shown once. The source calls these results inconclusive, neither active nor inactive. Unless noted, calls come from the whole dose curve; as a rule, active = well fitted curve in the direction sought with a large enough effect; inconclusive = small, poorly fitted or top-dose-only effect, or another doubt; inactive = no such curve, though single readings can be large; an effect the other way counts as inactive or inconclusive.
What was measured:
[1] = Cell Viability - NIH 3T3 (AID 541); settings: NIH 3T3 cell viability, qHTS; at 92.2 µM (top of the series);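 note: cells exposed to compound for 40 hours; plate controls were DMSO alone for no effect and tamoxifen positive control for full effect; nearly all actives have a fitted effect of over 25% in size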
How it was run: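 In this cytotoxicity screen, acute toxicity is scored as an ATP drop measured by CellTiter-Glo in NIH 3T3 fibroblasts following a 40 hr, 37 °C incubation with compound.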

By UniProt entry, the sequences of proteins in these tests, tags left out. Where a name states a change or a piece, a line headed by the entry shows the natural chain unless it says otherwise.
UniProt P10275: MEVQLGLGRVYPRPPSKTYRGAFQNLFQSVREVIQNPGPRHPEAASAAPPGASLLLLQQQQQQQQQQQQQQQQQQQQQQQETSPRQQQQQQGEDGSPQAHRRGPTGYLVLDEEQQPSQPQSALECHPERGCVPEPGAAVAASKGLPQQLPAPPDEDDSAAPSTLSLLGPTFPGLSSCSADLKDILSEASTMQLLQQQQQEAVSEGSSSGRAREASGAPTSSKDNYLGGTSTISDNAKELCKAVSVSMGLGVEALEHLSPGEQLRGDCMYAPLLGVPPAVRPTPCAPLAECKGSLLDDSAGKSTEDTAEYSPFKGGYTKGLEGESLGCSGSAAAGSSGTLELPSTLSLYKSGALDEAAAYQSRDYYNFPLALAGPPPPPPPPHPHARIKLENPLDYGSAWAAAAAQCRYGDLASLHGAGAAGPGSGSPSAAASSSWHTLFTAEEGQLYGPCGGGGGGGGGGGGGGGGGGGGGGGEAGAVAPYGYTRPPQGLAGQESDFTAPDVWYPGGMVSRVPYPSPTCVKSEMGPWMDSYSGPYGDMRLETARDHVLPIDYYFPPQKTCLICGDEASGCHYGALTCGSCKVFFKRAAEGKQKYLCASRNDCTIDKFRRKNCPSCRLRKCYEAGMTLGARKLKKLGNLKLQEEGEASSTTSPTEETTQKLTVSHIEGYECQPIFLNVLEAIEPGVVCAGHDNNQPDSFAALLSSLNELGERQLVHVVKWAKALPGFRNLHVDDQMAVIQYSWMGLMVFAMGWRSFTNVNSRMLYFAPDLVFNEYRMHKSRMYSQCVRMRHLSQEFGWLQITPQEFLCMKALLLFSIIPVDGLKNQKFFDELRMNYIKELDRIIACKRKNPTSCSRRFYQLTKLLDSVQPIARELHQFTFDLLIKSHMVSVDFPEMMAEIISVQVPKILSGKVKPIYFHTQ
UniProt Q03181: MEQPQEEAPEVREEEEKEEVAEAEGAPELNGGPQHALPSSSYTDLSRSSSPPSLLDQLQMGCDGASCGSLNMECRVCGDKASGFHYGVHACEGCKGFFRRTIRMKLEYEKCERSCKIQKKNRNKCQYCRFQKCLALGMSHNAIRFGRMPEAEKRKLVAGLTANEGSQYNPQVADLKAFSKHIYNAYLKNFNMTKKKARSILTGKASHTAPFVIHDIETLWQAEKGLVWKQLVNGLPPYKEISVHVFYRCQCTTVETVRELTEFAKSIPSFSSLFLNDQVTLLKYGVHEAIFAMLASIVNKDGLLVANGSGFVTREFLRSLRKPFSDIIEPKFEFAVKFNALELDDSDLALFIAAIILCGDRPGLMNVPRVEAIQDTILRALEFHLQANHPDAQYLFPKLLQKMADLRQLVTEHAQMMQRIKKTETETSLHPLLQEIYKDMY
UniProt P10828: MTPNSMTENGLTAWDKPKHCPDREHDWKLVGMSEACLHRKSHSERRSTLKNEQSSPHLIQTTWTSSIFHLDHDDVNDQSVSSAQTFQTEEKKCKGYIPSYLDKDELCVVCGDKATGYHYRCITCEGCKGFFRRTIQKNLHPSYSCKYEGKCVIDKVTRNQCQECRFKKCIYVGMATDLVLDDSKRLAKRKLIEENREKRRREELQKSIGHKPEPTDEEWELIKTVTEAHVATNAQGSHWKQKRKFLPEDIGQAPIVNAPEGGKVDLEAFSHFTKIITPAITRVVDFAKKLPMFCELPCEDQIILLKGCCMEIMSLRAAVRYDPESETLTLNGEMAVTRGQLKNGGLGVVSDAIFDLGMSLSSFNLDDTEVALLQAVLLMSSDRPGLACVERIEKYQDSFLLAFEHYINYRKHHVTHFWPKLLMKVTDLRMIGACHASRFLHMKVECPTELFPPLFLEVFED
UniProt P01375, whole entry, looked up: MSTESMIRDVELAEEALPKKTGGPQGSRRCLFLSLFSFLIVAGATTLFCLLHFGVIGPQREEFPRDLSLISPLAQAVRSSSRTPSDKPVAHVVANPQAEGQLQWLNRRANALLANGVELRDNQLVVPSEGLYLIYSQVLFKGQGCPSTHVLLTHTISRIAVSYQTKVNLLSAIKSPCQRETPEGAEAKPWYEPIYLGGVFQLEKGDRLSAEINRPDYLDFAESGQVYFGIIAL
UniProt P09992: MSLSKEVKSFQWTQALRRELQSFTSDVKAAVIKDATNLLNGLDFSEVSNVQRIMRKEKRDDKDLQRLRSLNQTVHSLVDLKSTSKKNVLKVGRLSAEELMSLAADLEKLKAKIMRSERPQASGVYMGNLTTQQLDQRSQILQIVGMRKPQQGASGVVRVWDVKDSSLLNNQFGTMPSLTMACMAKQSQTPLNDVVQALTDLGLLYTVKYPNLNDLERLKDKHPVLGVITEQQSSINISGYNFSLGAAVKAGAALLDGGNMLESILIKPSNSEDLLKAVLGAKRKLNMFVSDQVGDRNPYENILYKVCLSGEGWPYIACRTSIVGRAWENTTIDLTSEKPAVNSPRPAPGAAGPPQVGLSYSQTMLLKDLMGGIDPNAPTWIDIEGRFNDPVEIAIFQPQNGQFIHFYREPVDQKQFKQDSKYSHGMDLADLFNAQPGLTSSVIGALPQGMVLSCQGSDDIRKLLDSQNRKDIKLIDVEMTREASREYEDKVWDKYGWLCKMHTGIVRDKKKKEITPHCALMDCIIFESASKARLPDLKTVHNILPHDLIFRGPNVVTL
UniProt O15297: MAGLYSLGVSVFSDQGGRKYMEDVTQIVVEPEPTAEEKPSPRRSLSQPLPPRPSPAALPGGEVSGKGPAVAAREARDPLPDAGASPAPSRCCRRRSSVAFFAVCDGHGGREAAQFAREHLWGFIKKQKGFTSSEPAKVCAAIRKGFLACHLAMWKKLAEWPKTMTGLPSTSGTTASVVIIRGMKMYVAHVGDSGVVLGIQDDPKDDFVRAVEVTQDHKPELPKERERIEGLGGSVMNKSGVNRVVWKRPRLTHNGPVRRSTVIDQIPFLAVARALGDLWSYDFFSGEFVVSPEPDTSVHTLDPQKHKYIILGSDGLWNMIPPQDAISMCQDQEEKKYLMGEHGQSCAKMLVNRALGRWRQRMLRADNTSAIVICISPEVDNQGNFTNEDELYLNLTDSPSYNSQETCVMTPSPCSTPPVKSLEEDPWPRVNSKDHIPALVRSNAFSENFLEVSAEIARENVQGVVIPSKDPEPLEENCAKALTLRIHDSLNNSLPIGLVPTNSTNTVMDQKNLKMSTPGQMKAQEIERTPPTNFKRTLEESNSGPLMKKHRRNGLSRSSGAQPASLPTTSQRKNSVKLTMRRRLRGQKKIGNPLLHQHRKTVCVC
UniProt P08684, whole entry, looked up: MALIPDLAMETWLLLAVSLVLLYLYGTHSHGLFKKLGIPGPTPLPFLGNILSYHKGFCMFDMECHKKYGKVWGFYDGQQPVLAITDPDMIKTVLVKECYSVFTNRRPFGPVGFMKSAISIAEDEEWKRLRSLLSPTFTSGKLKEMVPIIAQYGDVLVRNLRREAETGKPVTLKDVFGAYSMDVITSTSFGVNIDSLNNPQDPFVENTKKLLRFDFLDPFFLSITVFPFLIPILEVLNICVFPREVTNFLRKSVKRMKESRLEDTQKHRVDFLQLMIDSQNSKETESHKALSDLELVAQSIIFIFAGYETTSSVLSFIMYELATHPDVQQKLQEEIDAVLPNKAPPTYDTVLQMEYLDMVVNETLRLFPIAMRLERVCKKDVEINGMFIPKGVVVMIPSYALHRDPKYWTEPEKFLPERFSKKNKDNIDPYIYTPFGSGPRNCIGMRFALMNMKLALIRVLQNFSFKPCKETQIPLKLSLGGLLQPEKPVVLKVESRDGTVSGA

[2] = Cell Viability - Renal Proximal Tubule (AID 545); settings: renal proximal tubule cells viability, primary cells of rat origin; at 91.7 µM (top of the series);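 note: cells exposed to compound for 40 hours; 0% = DMSO only and -100% = 100 µM tamoxifen; nearly all actives have a fitted effect of over 40% in size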
How it was run: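 Viability taken as intracellular ATP (CellTiter-Glo luminescence) after 40 hr, 37 °C compound treatment of primary proximal tubule cells from rat kidney, 1000 cells/well; Hill-equation fits of qHTS concentration-response data gave AC50.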

[3] = Cell Viability - LYMP1-003 - Assay at 40 hr (AID 964); settings: LYMP1-003 lymphoblastoid viability; note: potency is the fitted concentration of half-maximal effect; nearly all actives have a fitted effect of over 60% in size
How it was run: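 Acute toxicity is scored as a concentration-dependent loss of intracellular ATP in LYMP1-003 cells (2500/well, complete medium) after 40 hr at 37 C, measured by CellTiter-Glo luminescence; AC50 values derive from standard Hill modelling.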

[4] = target: Androgen receptor (Homo sapiens) (UniProt P10275); assay: qHTS assay for small molecule agonists of androgen receptor signaling (AID 588515; active = well fitted curve in the direction sought with a large enough effect in the signal ratio, with a control signal flat; inconclusive = small, poorly fitted or top-dose-only effect, or effect the other way, or a change in a side signal; inactive = no such curve, though single readings can be large or run the other way; the % refers to the signal ratio; note: potency is the fitted concentration of half-maximal effect); settings: AR-UAS-bla HEK293, beta-lactamase ratio, agonist 16 h; activation: active compounds read high
[5] = target: Androgen receptor (Homo sapiens) (UniProt P10275); assay: qHTS assay for small molecule antagonists of androgen receptor signaling (AID 588516; active = well fitted curve in the direction sought with a large enough effect in the signal ratio, with a control signal flat, not every such curve was filed as active; inconclusive = small, poorly fitted or top-dose-only effect, or effect the other way, or a change in a side signal; inactive = no such curve, though single readings can be large or run the other way; the % refers to the signal ratio; note: potency is the fitted concentration of half-maximal effect; for activity change, negative = inhibition: % is set by controls: 0 for no effect and ±100 for the full control effect); settings: AR-UAS-bla HEK293, beta-lactamase ratio, antagonist mode, 16 h; activity change, negative = inhibition: at 76.8 µM (top of the series)
[6] = target: Bile acid receptor (Homo sapiens) (UniProt Q96RI1); assay: qHTS assay for small molecule antagonists of farnesoid X receptor signaling (AID 588526; calls by dose curve; note: % is set by controls: 0 for no effect and ±100 for the full control effect); settings: HEK293T FXR-UAS-bla, beta-lactamase ratio, antagonist mode; at 76.7 µM (top of the series)
[7] = target: Bile acid receptor (Homo sapiens) (UniProt Q96RI1); assay: qHTS assay for small molecule agonists of farnesoid X receptor signaling (AID 588527; calls by dose curve;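 note: 0% = vehicle basal and 100% = reference agonist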); settings: HEK293T FXR-UAS-bla, beta-lactamase ratio, 16 h; activation: active compounds read high
[8] = target: Glucocorticoid receptor (Homo sapiens) (UniProt P04150); assay: qHTS assay for small molecule antagonists of glucocorticoid receptor signaling (AID 588533; active = well fitted inhibition curve with a large enough effect in the signal ratio, with a control signal flat, not every such curve was filed as active; inconclusive = small, poorly fitted or top-dose-only effect, or effect the other way, or a change in a side signal; the % refers to the signal ratio;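 note: cells stimulated with 2 nM dexamethasone as agonist; % is set by controls: 0 for no effect and ±100 for the full control effect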); settings: HeLa MMTV-bla, GRE beta-lactamase ratio, antagonist mode, 18 h; activity change, negative = inhibition: at 76.8 µM (top of the series)
[9] = target: Peroxisome proliferator-activated receptor delta (Homo sapiens) (UniProt Q03181); assay: qHTS assay for small molecule antagonists of peroxisome proliferator-activated receptor delta signaling (AID 588535; active = well fitted inhibition curve with a large enough effect in the signal ratio, with a control signal flat, not every such curve was filed as active; inconclusive = small, poorly fitted or top-dose-only effect, or effect the other way, or a change in a side signal; inactive = no such curve, though single readings can be large or run the other way; the % refers to the signal ratio; note: potency is the fitted concentration of half-maximal effect); settings: HEK293T PPARd-UAS-bla, beta-lactamase FRET ratio, 18 h; activity change, negative = inhibition: at 76.7 µM (top of the series)
[10] = target: Peroxisome proliferator-activated receptor gamma (Homo sapiens) (UniProt P37231); assay: qHTS assay for small molecule agonists of peroxisome proliferator-activated receptor gamma signaling (AID 588536; active = well fitted curve in the direction sought with a large enough effect in the signal ratio, with a control signal flat, not every such curve was filed as active; inconclusive = small, poorly fitted or top-dose-only effect, or effect the other way, or a change in a side signal; inactive = no such curve, though single readings can be large or run the other way; the % refers to the signal ratio; note: potency is the fitted concentration of half-maximal effect); settings: HEK293 PPARg-UAS-bla, beta-lactamase ratio, 16 h
[11] = target: Peroxisome proliferator-activated receptor gamma (Homo sapiens) (UniProt P37231); assay: qHTS assay for small molecule antagonists of peroxisome proliferator-activated receptor gamma signaling (AID 588537; active = well fitted inhibition curve with a large enough effect in the signal ratio, with a control signal flat, not every such curve was filed as active; inconclusive = small, poorly fitted or top-dose-only effect, or effect the other way, or a change in a side signal; the % refers to the signal ratio; note: potency is the fitted concentration of half-maximal effect;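 for activity, negative = inhibition: reporter cells co-stimulated with 50 nM rosiglitazone agonist during compound treatment; % of control where 0% means no effect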); settings: HEK293 PPARg-UAS-bla, beta-lactamase ratio, antagonist mode; activity, negative = inhibition: at 76.8 µM (top of the series)
How it was run: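 Cell-based beta-lactamase assay; GW9662 served as the antagonist control. Stimulation used rosiglitazone, final 50 nM, 16 h, 37 C.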

[12] = target: Vitamin D3 receptor (Homo sapiens) (UniProt P11473); assay: qHTS assay for small molecule antagonists of vitamin D receptor signaling (AID 588541; calls by dose curve; note: potency is the fitted concentration of half-maximal effect); settings: HEK293T VDR-UAS-bla, beta-lactamase ratio, antagonist mode
How it was run: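 Antagonist-mode beta-lactamase reporter assay: HEK293T VDR-UAS-bla cells were exposed to titrated compound alongside 1-alpha,25-dihydroxyvitamin D3 at 3 nM final for 16 h. Values were normalized to the 50 nM agonist control and DMSO basal, with IC50 and efficacy from Hill equation fits.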

[13] = target: Thyroid hormone receptor beta (Homo sapiens) (UniProt P10828); assay: qHTS assay for small molecule antagonists of thyroid hormone receptor beta signaling (AID 588547; active = well fitted inhibition curve with a large enough effect in the signal ratio, with a control signal flat, not every such curve was filed as active; inconclusive = small, poorly fitted or top-dose-only effect, or effect the other way, or a change in a side signal; the % refers to the signal ratio); settings: TR-UAS-bla HEK293, beta-lactamase ratio, antagonist mode, 18 h; inhibition: active compounds read low
How it was run: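 Inhibition of T3-driven (0.4nM final) beta-lactamase reporter activity was measured over 0.59 nM to 92 uM compound after 18 h at 37 C. The cells were GripTite HEK293 TR-UAS-bla in charcoal/dextran-stripped serum, with CCF4 ratio read-out and IC50 from Hill fits.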

[14] = qHTS assay for small molecule activators of the p53 signaling pathway (AID 651743; active = well fitted activation curve with a large enough effect in the signal ratio, not every such curve was filed as active; inconclusive = small, poorly fitted or top-dose-only effect, or a change in a side signal; the % refers to the signal ratio; note: potency is the fitted concentration of half-maximal effect); settings: HCT-116 p53RE-bla, beta-lactamase FRET ratio, 16 h
[15] = target: Tumor necrosis factor (Homo sapiens) (UniProt P01375); assay: qHTS assay to identify small molecules that stimulate Tumor Necrosis Factor-alpha (TNF-alpha) secretion (AID 651757; active = well fitted curve in the direction sought with a large enough effect in the signal ratio; inconclusive = small, poorly fitted or top-dose-only effect, or a change in a side signal; inactive = no such curve, though single readings can be large or run the other way; the % refers to the signal ratio; note: 0% is about no effect); settings: Human cells, HTRF 665/615 ratio; at 92.2 µM (top of the series)
How it was run: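 Using 3000 THP-1 cells per well, compounds and controls were applied for 17 hrs at 37 C. Detection followed with two labeled anti-TNF-alpha antibodies (cryptate donor, XL665 acceptor) for 3 hr at room temperature, measured by TR-FRET.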

[16] = qHTS assay for small molecule agonists of the antioxidant response element (ARE) signaling pathway measured by Nrf2-dependant transcriptional activity - cell viability counter screen (AID 720653; active = well fitted curve in the direction sought with a large enough effect in the repeat runs; inconclusive = weak or mixed curves; inactive = no such curve, though single readings can be large; an effect the other way counts as inactive or inconclusive; note: potency is the fitted concentration of half-maximal effect); settings: ARE-bla HepG2 viability, CellTiter-Glo ATP luminescence, 16 h
How it was run: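 Cytotoxicity counter screen: intracellular ATP quantified by CellTiter-Glo luminescence in the same ARE-bla HepG2 plates, after 16 h compound exposure and a 2 h beta-lactamase substrate step.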

[17] = qHTS assay for cell viability of HEK293 cells (AID 743288); settings: ATP luminescence (CellTiter-Glo), 18 h; note: potency is the fitted concentration of half-maximal effect; nearly all actives have a fitted effect of over 50% in size
How it was run: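 Readout is luciferase-coupled ATP content (CellTiter-Glo luminescence, 30 min room temperature) as a measure of metabolically competent cells. Parental HEK293 cells were plated 5 h or more before compound addition, then treated 18 h at 37 C.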

[18] = qHTS assay for measurement of the activity of small molecule inhibitors on Zika virus induced Caspase-3 activity in human iPSC derived neural progenitor cells (hNPCs) (AID 1224857); settings: hNPCs ZIKV-induced caspase-3/7, Caspase-Glo luminescence, 6 h; note: potency is the fitted concentration of half-maximal effect; nearly all actives have a fitted effect of over 65% in size
[19] = qHTS for Inhibitors of the Functional Ribonucleoprotein Complex (vRNP) of Lassa (LASV) Arenavirus: LASV Primary Screen - GLuc reporter signal (AID 1347082; calls by dose curve; tested in HEK293 reporter line; note: potency is the fitted concentration of half-maximal effect; nearly all actives have a fitted effect of over 60% in size); settings: LASV minigenome vRNP, Gaussia luciferase reporter
[20] = qHTS for Inhibitors of the Functional Ribonucleoprotein Complex (vRNP) of Lassa (LASV) Arenavirus: Viability assay - alamar blue signal for LASV Primary Screen (AID 1347083; calls by dose curve; tested in HEK293 reporter line; note: potency is the fitted concentration of half-maximal effect; nearly all actives have a fitted effect of over 80% in size); settings: cell viability, alamar blue fluorescence (LASV minigenome counter-screen)
[21] = target: Nucleoprotein (Lymphocytic choriomeningitis virus (strain Armstrong)) (UniProt P09992); assay: qHTS for Inhibitors of the Functional Ribonucleoprotein Complex (vRNP) of Lymphocytic Choriomeningitis Arenaviruses (LCMV): LCMV Primary Screen - GLuc reporter signal (AID 1347086; calls by dose curve; note: potency is the fitted concentration of half-maximal effect; nearly all actives have a fitted effect of over 70% in size); settings: LCMV minigenome vRNP cell assay, Gaussia luciferase reporter
[22] = qHTS of pediatric cancer cell lines to identify multiple opportunities for drug repurposing: Primary screen for TC32 cells (AID 1347089); settings: TC32 Ewing sarcoma viability, CellTiter-Glo luminescence, 48 h; note: potency is the fitted concentration of half-maximal effect; nearly all actives have a fitted effect of over 60% in size
[23] = qHTS of pediatric cancer cell lines to identify multiple opportunities for drug repurposing: Primary screen for A673 cells (AID 1347092); settings: A673 Ewing sarcoma viability, CellTiter-Glo ATP luminescence, 48 h; note: potency is the fitted concentration of half-maximal effect; nearly all actives have a fitted effect of over 45% in size
[24] = qHTS of pediatric cancer cell lines to identify multiple opportunities for drug repurposing: Primary screen for SK-N-SH cells (AID 1347098); settings: SK-N-SH viability, CellTiter-Glo luminescence, 48 h; note: potency is the fitted concentration of half-maximal effect; nearly all actives have a fitted effect of over 65% in size
[25] = qHTS of pediatric cancer cell lines to identify multiple opportunities for drug repurposing: Primary screen for NB1643 cells (AID 1347099); settings: NB1643 neuroblastoma viability, CellTiter-Glo luminescence, 48 h; note: potency is the fitted concentration of half-maximal effect; nearly all actives have a fitted effect of over 50% in size
[26] = qHTS of pediatric cancer cell lines to identify multiple opportunities for drug repurposing: Primary screen for LAN-5 cells (AID 1347100); settings: LAN-5 neuroblastoma viability, CellTiter-Glo luminescence, 48 h; note: potency is the fitted concentration of half-maximal effect
[27] = qHTS of pediatric cancer cell lines to identify multiple opportunities for drug repurposing: Primary screen for MG 63 (6-TG R) cells (AID 1347105); settings: MG 63 (6-TG R) viability, CellTiter-Glo, 48 h; note: potency is the fitted concentration of half-maximal effect; nearly all actives have a fitted effect of over 50% in size
[28] = qHTS of pediatric cancer cell lines to identify multiple opportunities for drug repurposing: Primary screen for Rh30 cells (AID 1347107); settings: Rh30 rhabdomyosarcoma viability, CellTiter-Glo luminescence, 48 h; note: potency is the fitted concentration of half-maximal effect; nearly all actives have a fitted effect of over 75% in size
[29] = target: Protein phosphatase 1D (Homo sapiens) (UniProt O15297); assay: Rhodamine-PBP qHTS Assay for Modulators of WT P53-Induced Phosphatase 1 (WIP1) (AID 1347425); settings: recombinant WIP1, Rhodamine-PBP phosphate fluorescence, real-time
How it was run: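 WIP1 (5 nM final) was preincubated with compound for 1 hour at room temperature. It then dephosphorylated 10 uM VEPPL-pS-QETFS peptide in Tris-HCl pH 7.5 with 30 mM MgCl2. Released Pi was detected by 10 uM Rh-PBP fluorescence (ex 525/em 598 nm) read at 1-min intervals for 11 min, as delta f1 - f0.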

[30] = target: Cytochrome P450 3A4 (Homo sapiens) (UniProt P08684); assay: Cytochrome P450 family 3 subfamily A member 4 (CYP3A4) small molecule antagonists: luciferase qHTS assay (AID 1645841; active = well fitted curve in the direction sought with a large enough effect in the repeat runs; inconclusive = weak or mixed curves; inactive = no such curve, though single readings can be large; an effect the other way counts as inactive or inconclusive; note: potency is the fitted concentration of half-maximal effect; nearly all actives have a fitted effect of over 45% in size); settings: P450-Glo CYP3A4 enzyme assay, luciferin luminescence
[31] = Primary qHTS for inhibitors of nuclear receptor binding SET domain protein 2 (NSD2) in an RCH-ACV wild type WT cells (2C) (AID 1645877); settings: RCH-ACV (leukaemia line) NSD2 WT (2C) viability, CellTiter-Glo, 72 h; note: potency is the fitted concentration of half-maximal effect; nearly all actives have a fitted effect of over 70% in size

Cc1cc([N+](=O)[O-])cc([N+](=O)[O-])c1O
inconclusive: activity change, negative = cytotoxicity [1] -62.4% | activity change, negative = cytotoxicity [2] -41.4% | Potency [3] 50.1 µM | Potency [4] 25.1 µM | Potency [5] 39.8 µM | activity change, negative = inhibition [5] -2.14% | activity change, negative = inhibition [6] -44.9% and -37.4% | activation [7] -2.21% | activity change, negative = inhibition [8] -37.8% and -32.9% | Potency [9] 44.7 µM | Potency [10] 44.7 µM | Potency [11] 50.1 µM | activity, negative = inhibition [11] -36% | Potency [12] 20 µM | inhibition [13] 2.74% | Potency [14] 50.1 µM | activation (TNF-alpha secretion) [15] 2.28% | Potency [16] 50.1 µM | Potency [17] 56.2 µM | Potency [18] 44.7 µM | Potency [19] 2.24 µM | Potency [20] 100 µM | Potency [21] 56.2 µM | Potency [22] 67.9 µM | Potency [23] 61.1 µM | Potency [24] 70.3 µM | Potency [25] 38.6 µM | Potency [26] 38.6 µM | Potency [27] 38.6 µM | Potency [28] 38.6 µM | Potency [29] 17.8 µM | Potency [30] 44.8 µM | Potency [31] 38.6 µM

— PubChem BioAssay (NCATS)
